The values below come from patent US20030166548A1, “PLAP polypeptides and methods of producing and using same” (Board of Regents, The University of Texas System, priority 1997, published 2003).

Protein sequences, listed by entry. Tags and fused reporters are not part of them. Residues count along the entry.
UniProt P00630, 34-167 limits assumed: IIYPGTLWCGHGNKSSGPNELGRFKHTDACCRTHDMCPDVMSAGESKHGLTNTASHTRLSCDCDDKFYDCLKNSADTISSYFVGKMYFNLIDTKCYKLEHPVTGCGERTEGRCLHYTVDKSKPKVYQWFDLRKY

This experiment deals with PLA2 from bee venom (Apis mellifera, UniProt P00630). The format is biochemical.

For `CC[C@H](C)[C@H](NC(=O)CN)C(=O)NCC(=O)N[C@@H](C)C(=O)N[C@H](C(=O)N[C@@H](CC(C)C)C(=O)N[C@@H](CCCCN)C(=O)N[C@H](C(=O)N[C@@H](CC(C)C)C(=O)N[C@H](C(=O)N[C@H](C(=O)NCC(=O)N[C@@H](CC(C)C)C(=O)N1CCC[C@H]1C(=O)N[C@@H](C)C(=O)N[C@@H](CC(C)C)C(=O)N[C@H](C(=O)N[C@@H](CO)C(=O)N[C@@H](Cc1c[nH]c2ccccc12)C(=O)N[C@H](C(=O)N[C@@H](CCCCN)C(=O)N[C@@H](CCCNC(=N)N)C(=O)N[C@@H](CCCCN)C(=O)N[C@@H](CCCNC(=N)N)C(=O)N[C@@H](CCC(N)=O)C(=O)N[C@@H](CCC(N)=O)C(N)=O)[C@@H](C)CC)[C@@H](C)CC)[C@@H](C)O)[C@@H](C)O)C(C)C)C(C)C` [Melittin], the “maximal inhibition of PLA2 enzyme activity” value is on record as 80%.
